Molecular target: human HDAC8 (Homo sapiens, UniProt Q9BY41, T69A)
Test: biochemical

By UniProt entry, the sequences of proteins in these tests, tags left out. Chains listed by the source or under a name are the forms on record and can include a tag or linker.
UniProt Q9BY41, with tags, fused parts or gaps T69A: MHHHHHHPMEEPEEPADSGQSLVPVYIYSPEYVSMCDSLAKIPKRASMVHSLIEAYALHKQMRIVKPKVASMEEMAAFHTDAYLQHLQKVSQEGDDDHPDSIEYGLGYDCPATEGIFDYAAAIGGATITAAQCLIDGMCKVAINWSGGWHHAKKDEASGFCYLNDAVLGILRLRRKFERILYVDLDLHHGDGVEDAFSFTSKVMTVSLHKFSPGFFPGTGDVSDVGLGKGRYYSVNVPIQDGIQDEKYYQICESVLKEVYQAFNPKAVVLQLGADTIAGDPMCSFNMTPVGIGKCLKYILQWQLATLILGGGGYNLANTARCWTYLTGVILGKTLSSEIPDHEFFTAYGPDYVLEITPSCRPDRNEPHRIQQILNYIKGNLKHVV

SMILES: O=C(CCCCCCC(=O)Nc1ccccc1)NO [SAHA, suberanilohydroxamic acid]
- IC50: 130 nM
